Test results as given in PubChem BioAssay AID588674 (Broad Institute, 2011).
This is a selection; strong and weak results do not stand in their true shares. Activity calls are given as the source filed them.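 Rule for the calls: active = mean inhibition of at least 75% with every replicate also reaching 75%; inconclusive = mean inhibition at least 75% but some replicate below; inactive = mean inhibition below 75%.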

Assay: Shn3 3'UTR reporter decrease in osteoblasts – cell-based, Clone20 osteoblasts, firefly luciferase, set 2, Schnurri-3 inhibitor project, primary screen (AID 588674);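 note: 0% = median of neutral control wells and 100% = pilot-screen positive control compound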
Settings: Clone20 osteoblast Shn3 3'UTR firefly luciferase, 24 h; at 12.5 µM; stronger effect = higher value
With `CCC(=O)N(c1ccccc1)C1(COC)CCN(CCc2cccs2)CC1` the inhibition was inactive: 8.11%. In the case of `CCC(=O)N(c1ccccc1)C1(COC)CCN(CCn2nnn(CC)c2=O)CC1`, the inhibition is reported as inactive: 8.04%.
